Article PMC3328499 (PLoS ONE, 2012)

Assays:
[1] = target: MalFGK2 complex (maltose ABC transporter), His6 on MalK, reconstituted in nanodiscs or in proteoliposomes (E. coli K12) (UniProt P02916)
[2] = target: MalFGK2 complex (maltose ABC transporter), His6 on MalK, reconstituted in nanodiscs or in proteoliposomes (E. coli K12) (UniProt P02916); assay: co-sedimentation; MalFGK2 proteoliposomes (2 µM) incubated with [^125I]-MalE or variants in 20 mM Tris-HCl pH 8, 10 mM MgCl2 with AMP-PNP (1 mM), 10 min 37°C; diluted 25-fold, ultracentrifugation (100,000 x g, 1 h); SDS-PAGE, Coomassie and autoradiography
[3] = target: MalFGK2 complex (maltose ABC transporter), His6 on MalK, reconstituted in nanodiscs or in proteoliposomes (E. coli K12) (UniProt P02916); remark: listed apart in the source
[4] = target: MalFGK2 complex (maltose ABC transporter), His6 on MalK, reconstituted in nanodiscs or in proteoliposomes (E. coli K12) (UniProt P02916); assay: co-sedimentation; as a7 but with AMP-PNP (1 mM) and maltose (1 mM)

MalE-A96W/I329W (from UniProt P0AEX9 27-396) (natural protein)
apparent Km for MalE-DW of the steady-state transport ATPase of MalFGK2 proteoliposomes, maltose 2 mM [1]: 25 µM
fold less co-sedimentation than MalE-wt [2]: 5 fold

MalE (maltose-binding protein), wild type (from UniProt P0AEX9 27-396) (natural protein)
fold increase of the rate of ATP hydrolysis of MalFGK2 (2 µM) by MalE (2 µM), 37°C, in detergent [3]: 1.3 fold
fold increase of the rate of ATP hydrolysis of MalFGK2 (2 µM) by MalE (2 µM), 37°C, in disc [3]: 3 fold
fold increase of the rate of ATP hydrolysis of MalFGK2 (2 µM) by MalE (2 µM), 37°C, in the membrane (proteoliposomes) [3]: 4 fold
fold reduction of the equilibrium binding affinity by maltose against AMP-PNP alone [4]: > 3 fold
apparent Km for MalE of the steady-state transport ATPase of MalFGK2 proteoliposomes, maltose 2 mM [1]: 14 µM
fold increase of the affinity for MalE with AMP-PNP against no nucleotide [2]: > 30 fold

MalE-254 (mutation D65N) (from UniProt P0AEX9 27-396) (natural protein)
apparent Km for MalE-254 of the steady-state transport ATPase of MalFGK2 proteoliposomes, maltose 2 mM [1]: 4 µM
